Results: US8962608B2, “Cycloalkylnitrile pyrazole carboxamides as janus kinase inhibitors” (Merck Sharp & Dohme Corp., priority 2011, dated 2015)
Counter-ions that a name gives are not always drawn. Like-named read-outs stand apart in the source and are kept apart here.

Chains of the proteins cited; added tags and fusions are not shown. Residues count along the entry.
UniProt P23458, 875-1153: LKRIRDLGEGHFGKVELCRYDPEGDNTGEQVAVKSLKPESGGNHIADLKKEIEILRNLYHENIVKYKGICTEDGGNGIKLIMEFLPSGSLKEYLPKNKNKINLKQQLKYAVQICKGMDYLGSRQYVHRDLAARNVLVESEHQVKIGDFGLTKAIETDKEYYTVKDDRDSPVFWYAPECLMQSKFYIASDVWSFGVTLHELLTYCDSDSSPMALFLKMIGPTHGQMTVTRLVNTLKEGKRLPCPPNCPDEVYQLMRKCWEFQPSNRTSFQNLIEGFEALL
UniProt O60674, 849-1124: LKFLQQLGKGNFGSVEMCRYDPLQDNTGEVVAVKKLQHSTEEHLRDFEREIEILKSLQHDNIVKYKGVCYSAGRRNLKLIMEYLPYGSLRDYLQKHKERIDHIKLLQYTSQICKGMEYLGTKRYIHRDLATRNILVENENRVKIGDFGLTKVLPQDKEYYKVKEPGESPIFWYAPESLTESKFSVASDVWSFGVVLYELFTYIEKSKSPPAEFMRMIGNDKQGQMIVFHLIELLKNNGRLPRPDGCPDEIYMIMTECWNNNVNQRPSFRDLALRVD

Columns and labels:
[1] = target: T1, JAK1 (recombinant purified GST-tagged catalytic domain) (Homo sapiens (Human), UniProt P23458);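 further: biochemical assay with HTRF read-out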
[2] = target: T2, JAK2 (recombinant purified GST-tagged catalytic domain) (Homo sapiens (Human), UniProt O60674);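 further: biochemical JAK kinase assay with HTRF detection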
[3] = target: T1, JAK1 (recombinant purified GST-tagged catalytic domain); assay: biochemical
[4] = target: T2, JAK2 (recombinant purified GST-tagged catalytic domain); assay: biochemical

Row | IC50 [1] [nM] | IC50 [2] [nM] | SMILES | further results
1 | 0.34 | 5 | N#C[C@H]1C[C@H](O)CC[C@@H]1n1cc(C(N)=O)c(Nc2ccc(S(=O)(=O)C(F)(F)F)cc2)n1 (mixture of isomers) [Example 13-1, 1-[(1S,2S,4R and 1R,2R,4S)-2-cyano-4-hydroxycyclohexyl]-3-({4-[(trifluoromethyl)sulfonyl]phenyl}amino)-1H-pyrazole-4-carboxamide] | 
2 | 0.62 | 9 | N#C[C@H]1C[C@@H](O)CC[C@@H]1n1cc(C(N)=O)c(Nc2ccc(S(=O)(=O)C(F)(F)F)cc2)n1 (mixture of isomers) [Example 13-2, 1-[(1S,2S,4S and 1R,2R,4R)-2-cyano-4-hydroxycyclohexyl]-3-({4-[(trifluoromethyl)sulfonyl]phenyl}amino)-1H-pyrazole-4-carboxamide] | 
3 |  | 5 | CN(C)[C@H]1CC[C@H](n2cc(C(N)=O)c(Nc3ccc(S(=O)(=O)C(F)(F)F)cc3)n2)[C@@H](C#N)C1 (mixture of isomers) [Example 27-1, 1-[(1S,3S,4S and 1R,3R,4R)-4-[4-carbamoyl-3-({4-[(trifluoromethyl)sulfonyl]phenyl}amino)-1H-pyrazol-1-yl]-3-cyano-N,N-dimethylcyclohexanaminium trifluoroacetate] | 
4 |  | 12 | CN(C)[C@@H]1CC[C@H](n2cc(C(N)=O)c(Nc3ccc(S(=O)(=O)C(F)(F)F)cc3)n2)[C@@H](C#N)C1 (mixture of isomers) [Example 27-2, 1-[(1R,3S,4S and 1S,3R,4R)-4-[4-carbamoyl-3-({4-[(trifluoromethyl)sulfonyl]phenyl}amino)-1H-pyrazol-1-yl]-3-cyano-N,N-dimethylcyclohexanaminium trifluoroacetate] | 
5 |  |  | N#C[C@H]1CCCC[C@@H]1n1cc(C(N)=O)c(Nc2ccccc2)n1 (racemic) [Example 2-1, 1-((1S,2S and 1R,2R)-2-cyanocyclohexyl)-3-(phenylamino)-1H-pyrazole-4-carboxamide] | IC50 [3]: 3 nM
6 |  |  | CN(C)[C@H]1CC[C@@H](n2cc(C(N)=O)c(Nc3ccc(OC(F)F)nc3)n2)[C@H](C#N)C1 (single isomer, unassigned) [Example 28-12, 1-[(1R,2R,4S or 1S,2S,4R)-2-cyano-4-(dimethylamino)cyclohexyl]-3-{[6-(difluoromethoxy)pyridin-3-yl]amino}-1H-pyrazole-4-carboxamide] | IC50 [4]: > 1500 nM
7 |  | 20 | N#C[C@H]1C[C@@H](N2CC3(COC3)C2)CC[C@@H]1n1cc(C(N)=O)c(Nc2ccc(C(F)(F)F)cc2)n1 (single isomer, unassigned) [Example 28-120, 1-[(1S,2S,4S or 1R,2R,4R )-2-cyano-4-(2-oxa-6-azaspiro[3.3]hept-6-yl)cyclohexyl]-3-{[4-(trifluoromethyl)phenyl]amino}-1H-pyrazole-4-carboxamide] | 
8 |  | 50 | CC1(C)CN([C@H]2CC[C@H](n3cc(C(N)=O)c(Nc4ccnc(F)c4)n3)[C@@H](C#N)C2)C1 (single isomer, unassigned) [Example 28-134, 1-[(1S,2S,4S or 1R,2R,4R )-2-cyano-4-(3,3-dimethylazetidin-1-yl)cyclohexyl]-3-[(2-fluoropyridin-4-yl)amino]-1H-pyrazole-4-carboxamide] | 
9 |  |  | C[C@@H](N[C@H]1CC[C@H](n2cc(C(N)=O)c(Nc3ccc(S(=O)(=O)C(F)(F)F)cc3)n2)[C@@H](C#N)C1)C1CC1 (single isomer, unassigned) [Example 28-182, 1-[(1S,2S,4S or 1R,2R,4R)-2-cyano-4-{[(1R)-1-cyclopropylethyl]amino}cyclo-hexyl]-3-({4-[(trifluoromethyl)sulfonyl]phen-yl}amino)-1H-pyrazole-4-carboxamide] | IC50 [3]: 0.15 nM
10 |  | 21 | CC1(N[C@H]2CCC(n3cc(C(N)=O)c(Nc4ccc(Cl)cc4)n3)[C@@H](C#N)C2)CC1 (single isomer, unassigned) [Example 28-205, 3-[(4-chlorophenyl)amino]-1-{(1S,2S,4S or 1R,2R,4R,)-2-cyano-4-[(1-methylcyclopropyl)amino]cyclo-hexyl}-1H-pyrazole-4-carboxamide] | 
11 |  |  | CC(C)(c1ccc(Nc2nn([C@H]3CC[C@@](C)(O)C[C@@H]3C#N)cc2C(N)=O)cc1)C(O)C(F)(F)F (single isomer, unassigned) [Example 32-2, 1-[(1S,2S,4R or 1R,2R,4S)-2-cyano-4-hydroxy-4-methylcyclohexyl]-3-{[4-(3,3,3-trifluoro-(2R or 2S)-hydroxy-1,1-dimethylpropyl)phenyl]amino}-1H-pyrazole-4-carboxamide] | IC50 [3]: 1 nM
12 |  |  | CC(C)(c1ccc(Nc2nn([C@H]3CC[C@](C)(O)C[C@@H]3C#N)cc2C(N)=O)cc1)C(O)C(F)(F)F (single isomer, unassigned) [Example 32-3, 1-[(1S,2S,4S or 1R,2R,4R)-2-cyano-4-hydroxy-4-methylcyclohexyl]-3-{[4-(3,3,3-trifluoro-(2R or 2S)-hydroxy-1,1-dimethylpropyl)phenyl]amino}-1H-pyrazole-4-carboxamide] | IC50 [3]: 0.7 nM
13 |  |  | CC(C)(c1ccc(Nc2nn([C@H]3CC[C@](C)(O)C[C@@H]3C#N)cc2C(N)=O)cc1)C(O)C(F)(F)F (single isomer, unassigned) [Example 32-4, 1-[(1S,2S,4S or 1R,2R,4R)-2-cyano-4-hydroxy-4-methylcyclohexyl]-3-{[4-(3,3,3-trifluoro-(2R or 2S)-hydroxy-1,1-dimethylpropyl)phenyl]amino}-1H-pyrazole-4-carboxamide] | IC50 [3]: 0.35 nM
14 |  |  | N#C[C@H]1C[C@@H](O)CC[C@@H]1n1cc(C(N)=O)c(Nc2ccc(C3CC3)cc2)n1 (single isomer, unassigned) [Example 33-18, 1-[(1S,2S,4S or 1R,2R,4R)-2-cyano-4-hydroxycyclohexyl]-3-[(4-cyclopropylphenyl)amino]-1H-pyrazole-4-carboxamide] | IC50 [3]: 3 nM
15 |  |  | N#C[C@H]1C[C@@H](C(=O)N2CC(F)(F)C2)CC[C@@H]1n1cc(C(N)=O)c(Nc2ccc(Cl)cc2)n1 (single isomer, unassigned) [Example 35-6, 3-[(4-chlorophenyl)amino]-1-{(1S,2S,4S or 1R,2R,4R)-2-cyano-4-[(3,3-difluoroazetidin-1-yl)carbonyl]cyclohexyl}-1H-pyrazole-4-carboxamide] | IC50 [4]: > 500 nM
16 |  |  | N#C[C@H]1C[C@@H](C(=O)N[C@H](C2CC2)C(F)(F)F)CC[C@@H]1n1cc(C(N)=O)c(Nc2ccc(Cl)cc2)n1 (single isomer, unassigned) [Example 35-14, 3-[(4-chlorophenyl)amino]-1-[(1S,2S,4S or 1R,2R,4R)-2-cyano-4-{[(1R)-1-cyclopropyl-2,2,2-trifluoroethyl]carbamoyl}cyclohexyl]-1H-pyrazole-4-carboxamide] | IC50 [4]: > 500 nM
17 |  |  | N#C[C@H]1C[C@@H](C(=O)N[C@@H](C2CC2)C(F)(F)F)CC[C@@H]1n1cc(C(N)=O)c(Nc2ccc(Cl)cc2)n1 (single isomer, unassigned) [Example 35-24, 3-[(4-chlorophenyl)amino]-1-[(1S,2S,4S or 1R,2R,4R)-2-cyano-4-{[(1S)-1-cyclopropyl-2,2,2-trifluoroethyl]carbamoyl}cyclohexyl]-1H-pyrazole-4-carboxamide] | IC50 [4]: > 500 nM
18 | 0.25 | 3 | CS(=O)(=O)c1ccc(Nc2nn([C@H]3CCCC[C@@H]3C#N)cc2C(N)=O)cc1 (single isomer, unassigned) [Example 42-1, 1-[(1S,2S or 1R,2R)-2-cyanocyclohexyl]-3-{[4-(methylsulfonyl)phenyl]amino}-1H-pyrazole-4-carboxamide] | 
19 | 3 |  | CS(=O)(=O)c1ccc(Nc2nn([C@H]3CCCC[C@@H]3C#N)cc2C(N)=O)cc1 (single isomer, unassigned) [Example 42-2, 1-[(1S,2S or 1R,2R)-2-cyanocyclohexyl]-3-{[4-(methylsulfonyl)phenyl]amino}-1H-pyrazole-4-carboxamide] | 
20 | 32 |  | CS(=O)(=O)c1ccc(Nc2nn([C@H]3CCCC[C@H]3C#N)cc2C(N)=O)cc1 (single isomer, unassigned) [Example 42-3, 1-[(1S,2R or 1R,2S)-2-cyanocyclohexyl]-3-{[4-(methylsulfonyl)phenyl]amino}-1H-pyrazole-4-carboxamide] | 
21 | 2 |  | CS(=O)(=O)c1ccc(Nc2nn([C@H]3CCCC[C@H]3C#N)cc2C(N)=O)cc1 (single isomer, unassigned) [Example 42-4, 1-[(1S,2R or 1R,2S)-2-cyanocyclohexyl]-3-{[4-(methylsulfonyl)phenyl]amino}-1H-pyrazole-4-carboxamide] | 
22 | 0.6 |  | CS(=O)(=O)c1ccc(Nc2nn(C3CCCCC3C#N)cc2C(N)=O)cc1 (centres unmarked) [Example 2-15, 1-(2-cyanocyclohexyl)-3-{[4-(methylsulfonyl)phenyl]amino}-1H-pyrazole-4-carboxamide] | 
23 | 105 | 1100 | CN(C)[C@@H]1CC[C@@H](n2cc(C(N)=O)c(Nc3ccc(OC(F)F)nc3)n2)[C@H](C#N)C1 [Example 28-31, 1-[(1R,2R,4R pr 1S,2S,4S)-2-cyano-4-(dimethylamino)cyclohexyl]-3-{[6-(difluoromethoxy)pyridin-3-yl]amino}-1H-pyrazole-4-carboxamide] | 

Row | SMILES | IC50 [1] [nM] | IC50 [2] [nM] | further results
24 | N#C[C@H]1CCCC[C@@H]1n1cc(C(N)=O)c(Nc2ccc(S(=O)(=O)C(F)(F)F)cc2)n1 (single isomer, unassigned) [Example 43-1, 1-[(1S,2S or 1R,2R)-2-cyanocyclohexyl]-3-({4-[(trifluoromethyl)sulfonyl]phenyl}amino)-1H-pyrazole-4-carboxamide] |  | 119 | 
25 | N#C[C@H]1CCCC[C@@H]1n1cc(C(N)=O)c(Nc2ccc(S(=O)(=O)C(F)(F)F)cc2)n1 (single isomer, unassigned) [Example 43-2, 1-[(1S,2S or 1R,2R)-2-cyanocyclohexyl]-3-({4-[(trifluoromethyl)sulfonyl]phenyl}amino)-1H-pyrazole-4-carboxamide] |  | 9 | 
